These are literature values, as cited in patent publication US11679984B2, “Composite sols” (Prebona AB, priority 2016, dated 2023).

For this data set the following is noted: 20° C.; cited from earlier work.

One may read the Aqueous solubility as the concentration that dissolves in the medium under given conditions. As for Co(OH)2, the Aqueous solubility was 34 µM.
